Measured values reported in PubChem BioAssay AID1006 (Sanford-Burnham Center for Chemical Genomics, 2008).
The entries are a selection whose mix differs from that of the whole data set. Active and inactive are the calls of the source.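 The calls were made as follows: active = inhibition above about 50% when tested at 10 µM (limit read from the data); inactive = the rest.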

Chains of the proteins cited; added tags and fusions are not shown.
UniProt P08659, whole entry, looked up: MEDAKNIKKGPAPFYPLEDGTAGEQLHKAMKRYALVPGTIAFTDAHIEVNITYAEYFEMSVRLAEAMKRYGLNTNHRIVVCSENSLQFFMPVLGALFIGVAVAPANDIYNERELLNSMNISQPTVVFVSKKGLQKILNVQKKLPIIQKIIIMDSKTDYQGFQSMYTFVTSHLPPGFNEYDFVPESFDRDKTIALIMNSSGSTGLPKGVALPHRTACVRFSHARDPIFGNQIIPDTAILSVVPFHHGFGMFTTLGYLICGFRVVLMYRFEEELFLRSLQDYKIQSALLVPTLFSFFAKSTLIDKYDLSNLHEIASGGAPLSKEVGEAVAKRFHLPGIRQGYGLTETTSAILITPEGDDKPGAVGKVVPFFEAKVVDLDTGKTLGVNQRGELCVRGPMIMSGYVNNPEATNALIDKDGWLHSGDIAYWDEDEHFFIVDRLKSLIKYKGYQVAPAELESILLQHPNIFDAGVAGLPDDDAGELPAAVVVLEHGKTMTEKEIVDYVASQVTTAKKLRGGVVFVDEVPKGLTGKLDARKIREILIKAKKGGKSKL

The molecules below were run against Luciferin 4-monooxygenase (Photinus pyralis) (UniProt P08659) (assay: inhibition of purified FLuc reporter enzyme – biochemical, luminescence, ATPLite, artefact control for luciferase-based inhibitor screens, primary screen (AID 1006)). Conditions: ATPLite firefly luciferase biochemical luminescence, 10 min; at 10 µM; hits give high values.

Row | SMILES | inhibition
1 | Fc1ccccc1NC1CCN(Cc2ccccc2)CC1 | inactive: -12.8%
2 | CCN1CCC(Nc2cccc(F)c2)CC1 | inactive: -7%
3 | CN(C)c1ccc(C(=O)NCC2(N3CCCCC3)CCCCC2)cc1 | inactive: -5.3%
4 | CCOc1ncccc1C(=O)NCC1(N2CCOCC2)CCCCC1 | inactive: -6.4%
5 | CC(C)(C)OC(=O)N1CCC(Nc2ccccc2)CC1 | inactive: -4.2%
6 | CCC(CO)(C(=O)OC1CN2CCC1CC2)c1ccccc1 (stereo not given) | inactive: -7%
7 | COc1cc(OC)cc(C(=O)NCC2(N3CCOCC3)CCCCC2)c1 | inactive: -8.9%
8 | COc1ccc(C(=O)NCC2(N3CCOCC3)CCCCC2)cc1OC | inactive: -7.5%
9 | N/C(=N\O)c1c(N)no[n+]1[O-] | inactive: -4%
10 | O=C(OC1CN2CCC1CC2)C1c2ccccc2C=Cc2ccccc21 (stereo not given) | inactive: -7.6%
11 | N#Cc1ccc(C(=O)NCC2(N3CCCCC3)CCCCC2)cc1 | inactive: -11.1%
12 | c1ccc(CN2CCC(Nc3ccccc3)CC2)cc1 | inactive: 0.1%
13 | O=C(NCC1(N2CCCCC2)CCCCC1)c1cccc([N+](=O)[O-])c1 | inactive: -7.6%
14 | N#CC1(Nc2ccccc2)CCN(CCc2ccccc2)CC1 | inactive: -6.5%
15 | CN1CCN(CCOC(=O)C(O)(c2ccccc2)c2ccccc2)CC1 | inactive: -5.8%
16 | COc1ccc(NC2CCN(C(=O)OC(C)(C)C)CC2)cc1 | inactive: 0.6%
17 | O=C(NCC1(N2CCOCC2)CCCCC1)c1cc(=O)[nH]c2ccccc12 | inactive: -1.1%
18 | COc1ccc(CN(CCCl)CCCl)cc1Cl | inactive: -6%
19 | CN(C)c1cccc(C(=O)NCC2(N3CCCCC3)CCCCC2)c1 | inactive: -6.1%
20 | CC(C)c1ccc(NC2CCN(C(=O)OC(C)(C)C)CC2)cc1 | inactive: -4.7%
21 | COc1ccc(C(=O)NCC2(N3CCCCC3)CCCCC2)c(OC)c1OC | inactive: -4.1%
22 | O=C(NCC1(N2CCOCC2)CCCCC1)c1cc2ccccc2o1 | inactive: -5.6%
23 | CCOC(=O)N1CCC(Nc2ccc(OC)cc2)CC1 | inactive: -2%
24 | O=C(OC1CN2CCC1CC2)C1c2ccccc2Oc2ccccc21 (stereo not given) | inactive: -3.3%
25 | COc1ccc(NC2CCN(CCc3ccccc3)CC2)c(OC)c1 | inactive: -8.7%
